Measurements: PMC8154177 (Circulation, 2021)

Key:
Type in all cases: cell-based
human Nav1.5 Y1767L = target: T1, human Nav1.5 Y1767L (Homo sapiens, UniProt Q14524, Y1767L); experiment: Whole-cell patch-clamp of recombinant Nav1.5 Y1767L mutant, H2O2-induced late-INa; settings: 10 µmol/L; not to the same extent as in WT
T1 construct: host or cells: HEK293T
Description: (§1) The human Nav1.5 gene (SCN5A) in the pcDNA3.1(+)/C-(K)DYK vector (GenScript, Cat No. OHu18270D, USA) was cotransfected with a GFP vector into HEK293T cells using Lipofectamine 3000 (Invitrogen, Cat No. L3000001, USA). Transfected cells were seated on coverslips and used for functional studies within 48 to 72 hours. […] PCR products were cloned into XL-10 Gold Ultracompetent cells (Agilent, Cat No. 200315, USA), and DNA was isolated and purified by GeneElute Plasmid Miniprep kits (Sigma, Cat No. PLN350, USA). The presence of the desired mutations and the integrity of plasmids were then verified by DNA sequencing (The Applied Genomics Core, University of Alberta). The R1623Q LQT3 mutation in human Nav1.5 was constructed as described previously.[42]
(§2) Pipettes were pulled from borosilicate glass (World Precision Instruments, Sarasota, FL) using a P-87 micropipette puller (Sutter Instruments, Novato, CA), and the tips were fire-polished, yielding resistances of 3 to 4 MΩ. The pipette solution contained (in mmol/L) 130 CsCl, 5 NaCl, 5 TEA (tetra-ethyl ammonium chloride)-Cl, 2.5 HEPES, 1 EGTA, and 2 MgATP. The pH was adjusted to 7.2 with CsOH. The extracellular solution contained (in mmol/L) 140 NaCl, 10 HEPES, 1 CaCl2, 1.4 MgCl2, 5 KCl, and 5 glucose (pH adjusted to 7.4 with NaOH).

human Nav1.5 F1760L = target: T2, human Nav1.5 F1760L (Homo sapiens, UniProt Q14524, F1760L); experiment: Whole-cell patch-clamp of recombinant Nav1.5 F1760L mutant, H2O2-induced late-INa; settings: 10 µmol/L
T2 construct: host or cells: HEK293T
Description: as §1, §2

human Nav1.5 W1345L = target: T3, human Nav1.5 W1345L (Homo sapiens, UniProt Q14524, W1345L); experiment: Whole-cell patch-clamp of recombinant Nav1.5 W1345L mutant, H2O2-induced late-INa; settings: 10 µmol/L
T3 construct: host or cells: HEK293T
Description: as §1, §2

Q: With `OC[C@H]1O[C@@H](c2ccc(Cl)c(Cc3ccc(O[C@H]4CCOC4)cc3)c2)[C@H](O)[C@@H](O)[C@@H]1O` [empagliflozin] as the compound, how does the “Effect on H2O2-induced late-INa in Y1767L” value (human Nav1.5 Y1767L) read?
A: significantly inhibited

Q: And the “Effect on H2O2-induced late-INa in F1760L” value (human Nav1.5 F1760L)?
A: insensitive

Q: And the “Effect on H2O2-induced late-INa in W1345L” value (human Nav1.5 W1345L)?
A: insensitive
